Test results reported in PMC3711766 (The Journal of neuroscience : the official journal of the …, 2013).

Chains of the proteins cited; added tags and fusions are not shown.
UniProt P42866, whole entry: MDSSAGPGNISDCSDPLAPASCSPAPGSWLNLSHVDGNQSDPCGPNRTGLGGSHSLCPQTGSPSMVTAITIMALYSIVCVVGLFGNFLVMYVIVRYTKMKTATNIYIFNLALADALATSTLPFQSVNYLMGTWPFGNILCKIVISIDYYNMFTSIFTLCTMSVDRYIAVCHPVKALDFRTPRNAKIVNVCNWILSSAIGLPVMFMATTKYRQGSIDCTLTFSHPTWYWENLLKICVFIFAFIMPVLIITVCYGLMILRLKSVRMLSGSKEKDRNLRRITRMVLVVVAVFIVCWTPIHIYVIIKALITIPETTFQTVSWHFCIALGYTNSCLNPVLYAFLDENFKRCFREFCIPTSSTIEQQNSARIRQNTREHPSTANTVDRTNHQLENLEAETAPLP

Biological target: FLAG-MOR (Mus musculus, UniProt P42866)
Assay type: binding

How did the “fraction derm A594 remaining after 3 min” value turn out when CCC(=O)C(CC(C)N(C)C)(c1ccccc1)c1ccccc1 (stereo not shown) [methadone] was run?
Its value is 0.44±0.01.
